Measured values published in patent publication US20060148728A1 (priority 2000, published 2006).

Experiment: Solubilization and stability of podophyllotoxin in surfactant formulations
Format: physicochemical
Settings: TWEEN-80/alcohol solution diluted with an aqueous solution

For `COc1cc([C@@H]2c3cc4c(cc3[C@H](O)[C@H]3COC(=O)[C@H]23)OCO4)cc(OC)c1OC` [podophyllotoxin], the “Precipitation of podophyllotoxin after dilution” value was “precipitates within several hours”.
